Assay results published in patent US20200246284A1 (Academia Sinica, priority 2015, published 2020).

Test system: Caco-2 cell monolayers
Test: Caco-2 permeability
Assay type: in vitro ADME, human
Conditions: high and low standard
Excerpt: The Caco-2 permeability assay is considered to be the industry gold standard for in vitro prediction of in vivo human intestinal permeability and bioavailability of orally administered drugs. The Caco-2 permeability assay uses an established method for predicting the absorption of therapeutic compounds across the GIT by measuring the rate of transport across a contiguous Caco-2 cell monolayer. […] The Caco-2 assay measures the passage of a test compound from a donor chamber into an acceptor chamber through a porous membrane on which a confluent Caco-2 monolayer forms a cellular barrier.

Compound: COC(=O)c1ccccc1-c1c2ccc(=N)cc-2oc2cc(N)ccc12.Cl [Rodamin 123]
- Papp (A to B), standards: Low standard = 0.88 × 10−6 cm/sec
